Test [1] addresses T1, CB1 receptors (Mus musculus, UniProt P47746). Put plainly: [35S]GTPγS binding. On the technique in general: Binding of GTPγS marks nucleotide exchange on a G protein.
Test [2] addresses T1, CB1 receptors. In words: Competition receptor binding vs [3H]CP-55,940 in mouse brain membranes. The settings on record: displacement of 0.2 nM [3H]CP-55,940, mouse brain membranes, N=3.

Amino acid sequences for entries named in this document (tags omitted).
UniProt P47746, whole entry: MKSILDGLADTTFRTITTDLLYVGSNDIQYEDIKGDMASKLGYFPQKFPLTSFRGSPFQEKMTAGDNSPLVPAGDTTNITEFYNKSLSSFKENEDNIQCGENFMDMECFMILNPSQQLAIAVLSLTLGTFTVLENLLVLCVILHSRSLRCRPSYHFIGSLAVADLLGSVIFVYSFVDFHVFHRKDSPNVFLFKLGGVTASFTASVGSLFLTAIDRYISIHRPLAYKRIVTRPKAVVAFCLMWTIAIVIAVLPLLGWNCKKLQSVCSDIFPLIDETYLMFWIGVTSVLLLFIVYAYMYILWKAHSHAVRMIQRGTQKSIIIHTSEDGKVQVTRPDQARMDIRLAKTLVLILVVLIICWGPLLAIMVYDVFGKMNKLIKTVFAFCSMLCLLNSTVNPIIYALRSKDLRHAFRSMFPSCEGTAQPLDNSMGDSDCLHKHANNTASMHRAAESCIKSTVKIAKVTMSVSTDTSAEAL

The EC50 is the concentration at which the effect is half-maximal.

`CCCCCc1cc(O)c2c(c1)OC(C)(C)[C@@H]1CCC(C)=C[C@@H]21` [Δ^9-THC, Δ^9-tetrahydrocannabinol]: the “G protein activation by 1 μM compound on co-incubation with rimonabant” value on CB1 receptors [1] (1 μM compound + rimonabant 100 nM, mouse brain membranes) was “complete reversal”. The “Emax, increase of [35S]GTPγS binding” value at CB1 receptors [1] (mouse brain membranes 25 μg, N=3) is reported as “approximately 142.2 +/− 2.2%”. In addition, the “pEC50, [35S]GTPγS binding” value on CB1 receptors [1] (mouse brain membranes, N=3) was 7.672 +/− 0.158. The concentration giving a half-maximal response (EC50) at CB1 receptors [1] (read-out: potency (EC50), [35S]GTPγS binding, mouse brain membranes 25 μg, N=3) is 24.5 nM. The pKi at CB1 receptors [2] was 7.847 +/− 0.12.

The values are drawn from paper PMC7415729 (Pharmacology, biochemistry, and behavior, 2020).
